Target: T1, MMP-2 (Homo sapiens, UniProt P08253)
T1 construct: Human MMP-2 full length (aa 1-660)
T1 sequence (P08253 30-660): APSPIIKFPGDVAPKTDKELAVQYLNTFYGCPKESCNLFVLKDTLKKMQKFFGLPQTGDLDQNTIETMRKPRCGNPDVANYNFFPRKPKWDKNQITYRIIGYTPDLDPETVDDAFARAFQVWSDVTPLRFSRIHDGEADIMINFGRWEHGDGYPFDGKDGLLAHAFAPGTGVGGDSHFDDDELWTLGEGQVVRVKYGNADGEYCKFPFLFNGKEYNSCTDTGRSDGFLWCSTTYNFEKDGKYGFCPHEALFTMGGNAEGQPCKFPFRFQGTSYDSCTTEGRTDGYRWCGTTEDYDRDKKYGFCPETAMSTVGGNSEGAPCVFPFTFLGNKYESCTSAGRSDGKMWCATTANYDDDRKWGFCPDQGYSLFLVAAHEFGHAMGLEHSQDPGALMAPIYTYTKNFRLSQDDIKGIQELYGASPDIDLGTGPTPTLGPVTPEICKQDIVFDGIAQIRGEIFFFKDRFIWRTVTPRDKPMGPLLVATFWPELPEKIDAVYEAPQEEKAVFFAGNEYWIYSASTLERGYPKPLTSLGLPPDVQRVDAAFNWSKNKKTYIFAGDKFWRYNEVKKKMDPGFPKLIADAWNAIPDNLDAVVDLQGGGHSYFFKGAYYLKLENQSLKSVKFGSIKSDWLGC
Assay: MMP enzymatic assay (Trupoint peptide), MMP-2
Type: biochemical
Conditions: read-out: MMP-2 nM IC50
Protocol: [formula] • 1) Prepare appropriate 1×MMP assay buffer from 10× stock. […] Need to prepare a 2.5× concentration stock (2.5 μM) to achieve this concentration in 50 μl. Dilute compound to 2.5 mM in 100% DMSO (a 1:40 dilution), then dilute the 2.5 mM compound to 2.5 μM (1:1000) into 1× assay buffer. Make 1 ml 2.5 μM compound in assay buffer. • 4) Fill the rows B through P of a 384-well plate with assay buffer+0.1% DMSO. • 5) Add 30 ul of the 2.5 μM compound in assay buffer to the top row of the plate, doing each compound in triplicate. The plate setup should be as follows, using GM6001 as plate reference compound:
• 6) Serially dilute 10 μl down the plate to achieve 1:3 dilutions in subsequent wells. After each dilution, change pipette tips to avoid compound carryover. Discard the remaining 10 μl after diluting into the final row. • 7) Prepare enzyme dilutions at 2.5× of final desired concentration (see below). Will need 10 ml enzyme solution per plate. Add enzyme to plate, 20 μl per well. Incubate 1 hr.
• 8) Dilute the 500 μM Trupoint peptide 1:1000 into assay buffer to achieve a 5× working stock of 500 nM. Prepare 5 ml total per plate. Add 10 ul of substrate to each well to achieve a final concentration of 100 nM in well. […] Read in plate reader. […]

IC50: 108 nM
SMILES: O=C1[C@H](NS(=O)(=O)c2ccc(Oc3ccc(Cl)cc3)cc2)CCCN1O [Compound 57, (R)-4-(4-Chloro-phenoxy)-N-(1-hydroxy-2-oxo-piperidin-3-yl)-benzene-sulfonamide]
